pKi: −log10 of the molar value.
What was measured:
[1] = molecular target: Cyclin-dependent kinase 5/CDK5 activator 1 (Homo sapiens, UniProt Q00535); assay: Inhibition of human CDK5/p25NCK using histone H1 as substrate preincubated for 10 mins followed by substrate and ATP addition and measured after 60 mins by ADP-Glo reagent based microplate reader assay; type: protein-complex assay
CDK7/Cyclin H/MNAT1 = CDK7/Cyclin H/MNAT1 (Homo sapiens, UniProt P50613); assay: (§1) Inhibition of recombinant human His-tagged CDK7/cyclin H/MNAT1 expressed in baculovirus expression system using histone H1 as substrate preincubated for 10 mins followed by substrate and ATP addition and measured after 60 mins by ADP-Glo reagent based microplate reader assay
CDK9/cyclin T1 = CDK9/cyclin T1 (Homo sapiens, UniProt P50750); assay: as §1, with “of full-length” for “of”, “recombinant N-terminal GST-tagged” for “recombinant”, “CDK9 (1 to 372 residues)/His-tagged cyclinT1 (1 to 726 residues)” for “His-tagged CDK7/cyclin H/MNAT1”

Sequences of proteins named here, by UniProt entry; tags and fusion partners are left off. A change or cut given only in a name is not applied to a line headed by its entry.
UniProt Q00535, whole entry: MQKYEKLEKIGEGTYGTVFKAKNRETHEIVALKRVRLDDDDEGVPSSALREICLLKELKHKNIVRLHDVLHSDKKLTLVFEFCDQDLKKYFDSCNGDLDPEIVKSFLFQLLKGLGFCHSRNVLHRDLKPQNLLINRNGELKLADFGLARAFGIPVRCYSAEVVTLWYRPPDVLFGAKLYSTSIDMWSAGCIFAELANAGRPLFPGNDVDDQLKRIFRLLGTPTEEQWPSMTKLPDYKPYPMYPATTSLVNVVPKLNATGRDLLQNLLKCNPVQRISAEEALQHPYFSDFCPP
UniProt P50613: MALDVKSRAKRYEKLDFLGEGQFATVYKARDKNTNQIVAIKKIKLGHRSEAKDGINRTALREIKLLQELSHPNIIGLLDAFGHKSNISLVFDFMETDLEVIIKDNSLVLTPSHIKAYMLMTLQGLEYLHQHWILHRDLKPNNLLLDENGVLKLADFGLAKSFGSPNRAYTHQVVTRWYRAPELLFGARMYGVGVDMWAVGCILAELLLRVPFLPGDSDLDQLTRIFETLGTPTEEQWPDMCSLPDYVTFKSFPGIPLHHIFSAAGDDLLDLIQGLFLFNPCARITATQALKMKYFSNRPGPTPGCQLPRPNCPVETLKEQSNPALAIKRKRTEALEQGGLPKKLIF
UniProt P50750, whole entry: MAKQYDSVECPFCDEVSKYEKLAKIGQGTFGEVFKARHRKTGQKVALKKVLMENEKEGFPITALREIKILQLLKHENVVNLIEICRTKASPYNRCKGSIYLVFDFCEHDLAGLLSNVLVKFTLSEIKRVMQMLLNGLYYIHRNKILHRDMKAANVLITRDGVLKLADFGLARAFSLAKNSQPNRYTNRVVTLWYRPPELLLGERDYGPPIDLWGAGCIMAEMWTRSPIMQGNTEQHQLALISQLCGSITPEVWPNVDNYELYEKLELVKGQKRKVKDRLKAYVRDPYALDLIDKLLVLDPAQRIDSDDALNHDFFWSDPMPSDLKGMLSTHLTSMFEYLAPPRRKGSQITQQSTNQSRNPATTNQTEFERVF

pKi [1]: 7.80
pKi (CDK7/Cyclin H/MNAT1): 7.26
pKi (CDK9/cyclin T1): 7.89
Structure (SMILES): CC(C)c1cnn2c3nc(nc12)N(CC1CNC1)CCCCCOc1cc(S(C)(=O)=O)ccc1CN3

Source: ChEMBL document CHEMBL5550116, “Discovery of novel macrocyclic derivatives as potent and selective cyclin-dependent kinase 2 inhibitors” (Bioorg Med Chem, 2024)
